Experimental data taken from US20240018161A1, “MODULATORS OF CYSTIC FIBROSIS TRANSMEMBRANE CONDUCTANCE REGULATOR” (VERTEX PHARMACEUTICALS INCORPORATED, priority 2020, published 2024).

Sequences of proteins named here, by UniProt entry; tags and fusion partners are left off. A line that says so, or that is headed by a name, gives the form on record, which may keep a tag or linker.
UniProt P13569, with tags, fused parts or gaps DEL508-508: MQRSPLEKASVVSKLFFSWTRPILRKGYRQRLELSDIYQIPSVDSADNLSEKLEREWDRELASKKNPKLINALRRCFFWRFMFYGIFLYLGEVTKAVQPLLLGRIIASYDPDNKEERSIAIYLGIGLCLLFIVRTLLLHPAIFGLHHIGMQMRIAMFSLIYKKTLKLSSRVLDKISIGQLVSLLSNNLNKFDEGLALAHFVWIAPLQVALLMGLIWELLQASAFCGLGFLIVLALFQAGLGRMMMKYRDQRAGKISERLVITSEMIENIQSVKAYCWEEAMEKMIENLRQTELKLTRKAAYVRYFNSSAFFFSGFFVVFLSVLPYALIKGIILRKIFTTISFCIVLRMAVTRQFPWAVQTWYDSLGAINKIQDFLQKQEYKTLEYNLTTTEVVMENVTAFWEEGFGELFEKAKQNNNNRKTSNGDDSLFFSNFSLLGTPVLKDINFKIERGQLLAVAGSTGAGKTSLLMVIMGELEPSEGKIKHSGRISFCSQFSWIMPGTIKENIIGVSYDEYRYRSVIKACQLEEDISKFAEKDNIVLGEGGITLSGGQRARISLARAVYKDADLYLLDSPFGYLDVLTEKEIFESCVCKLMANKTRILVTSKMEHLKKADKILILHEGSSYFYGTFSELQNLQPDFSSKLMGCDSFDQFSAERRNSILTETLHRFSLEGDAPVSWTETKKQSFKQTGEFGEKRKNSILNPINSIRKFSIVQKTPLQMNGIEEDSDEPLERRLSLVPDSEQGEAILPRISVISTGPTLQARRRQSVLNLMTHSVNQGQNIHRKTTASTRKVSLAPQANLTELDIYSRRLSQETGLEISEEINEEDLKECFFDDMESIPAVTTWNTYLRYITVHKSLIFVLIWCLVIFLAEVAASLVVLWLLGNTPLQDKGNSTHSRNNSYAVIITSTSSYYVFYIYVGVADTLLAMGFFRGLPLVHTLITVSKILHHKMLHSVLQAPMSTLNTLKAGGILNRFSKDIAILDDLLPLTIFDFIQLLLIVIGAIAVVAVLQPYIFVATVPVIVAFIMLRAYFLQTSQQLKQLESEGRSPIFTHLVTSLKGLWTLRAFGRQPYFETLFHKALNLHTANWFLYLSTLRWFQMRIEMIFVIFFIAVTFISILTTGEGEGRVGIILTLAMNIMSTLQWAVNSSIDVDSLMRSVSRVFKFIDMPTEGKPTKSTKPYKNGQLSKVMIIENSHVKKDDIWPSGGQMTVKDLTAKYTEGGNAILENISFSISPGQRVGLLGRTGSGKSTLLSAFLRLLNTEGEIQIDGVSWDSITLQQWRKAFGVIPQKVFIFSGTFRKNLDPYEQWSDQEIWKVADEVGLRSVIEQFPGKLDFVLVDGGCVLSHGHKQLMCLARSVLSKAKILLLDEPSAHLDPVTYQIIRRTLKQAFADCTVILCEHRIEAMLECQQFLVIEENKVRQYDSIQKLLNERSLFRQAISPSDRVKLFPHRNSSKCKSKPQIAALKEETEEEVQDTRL

Legend:
[1] = molecular target: T1, CFTR-mediated chloride transport in human intestinal epithelial enteroid cells (Homo sapiens, UniProt P13569); experiment: Membrane potential dye, Enteroid Assay B; type: cell-based
Method: (§1) Base medium (ADF+++) consisted of Advanced DMEM/Ham's F12, 2 mM Glutamax, 10 mM HEPES, […] penicillin/streptomycin.
(§2) Bath 1 Buffer consisted of 1 mM MgCl2, 160 mM NaCl, 4.5 mM KCl, 10 mM HEPES, 10 mM Glucose, 2 mM CaCl2.
(§3) Chloride Free Buffer consisted of 1 mM Magnesium Gluconate, 2 mM Calcium Gluconate, 4.5 mM Potassium Gluconate, 160 mM Sodium Gluconate, 10 mM HEPES, 10 mM Glucose.
(§4) Bath1 Dye Solution consisted of Bath 1 Buffer, 0.04% Pluronic F127, 20 μM Methyl Oxonol, 30 μM CaCCinh-A01, 30 μM Chicago Sky Blue.
(§5) Chloride Free Dye Solution consisted of Chloride Free Buffer, 0.04% Pluronic F127, 20 μM Methyl Oxonol, 30 μM CaCCinh-A01, 30 μM Chicago Sky Blue.
(§6) 3. Enteroid Cell Harvesting and Seeding
(§7) Cells were recovered in cell recovery solution, collected by centrifugation at 650 rpm for 5 min at 4° C., resuspended in TryPLE and incubated for 5 min at 37° C. Cells were then collected by centrifugation at 650 rpm for 5 min at 4° C. and resuspended in IEMM containing 10 μM ROCK inhibitor (RI).
5. Membrane Potential Dye, Enteroid Assay B
Briefly, cells were washed 5 times in Bath 1 Buffer. Bath 1 Dye Solution was added and the cells were incubated for 25 min at room temperature. Following dye incubation, cells were washed 3 times in Chloride Free Dye Solution. Chloride transport was initiated by addition of Chloride Free Dye Stimulation Solution and the fluorescence signal was read for 15 min.

[2] = molecular target: T1, CFTR-mediated chloride transport in human intestinal epithelial enteroid cells; experiment: Membrane potential dye, Enteroid Assay A; type: cell-based; settings: for EC50: read-out: Ent. A EC50
Method: as §1, §2, §3, §4, §5, §6, §7
4. Membrane Potential Dye, Enteroid Assay A
Briefly, cells were washed 5 times in Bath 1 Buffer. Bath 1 Dye Solution was added, and the cells were incubated for 25 min at room temperature. Following dye incubation, cells were washed 3 times in Chloride Free Dye Solution. Chloride transport was initiated by addition of Chloride Free Dye Stimulation Solution and the fluorescence signal was read for 15 min. […] Chloride transport was then expressed as a percentage of the chloride transport following treatment with 3 μM N-[(6-amino-2-pyridyl)sulfonyl]-6-(3-fluoro-5-isobutoxy-phenyl)-2-[(4S)-2,2,4-trimethylpyrrolidin-1-yl]pyridine-3-carboxamide, 3 μM (R)-1-(2,2-difluorobenzo[d][1,3]dioxol-5-yl)-N-(1-(2,3-dihydroxypropyl)-6-fluoro-2-(1-hydroxy-2-methylpropan-2-yl)-1H-indol-5-yl)cyclopropanecarboxamide and 300 nM acute N-[2,4-bis(1,1-dimethylethyl)-5-hydroxyphenyl]-1,4-dihydro-4-oxoquinoline-3-carboxamide triple combination control (% Activity).

| SMILES | Ent. B Max Activity (%) [1] | EC50 ([1]; read-out: Ent. B EC50) | Ent. A Max Activity (%) [2] | EC50 [2] |
| --- | --- | --- | --- | --- |
| Cc1cccc(C)c1-c1cc2nc(n1)NS(=O)(=O)c1cccc(c1)C(=O)N1Cc3cc(C(F)(F)F)ccc3[C@H](O2)[C@H]1CC(C)C [Compound 186, (16S,24R)-12-(2,6-Dimethylphenyl)-24-(2-methylpropyl)-20-(trifluoromethyl)-15-oxa-8λ^6-thia-1,9,11,25-tetraazapentacyclo[14.7.1.13,7.110,14.017,22]hexacosa-3,5,7(26),10,12,14(25),17,19,21-nonaene-2,8,8-trione] | +++ (+++ is >600%) | < 1 µM | +++ (key: +++ is >600%; ++ is 30-60%; + is <30%) | < 1 µM |
| Cc1cccc(C)c1-c1cc2nc(n1)NS(=O)(=O)c1cccc(c1)C(=O)N1Cc3cc(C(F)(F)F)ccc3[C@@H](O2)[C@H]1CC(C)C [Compound 187, (16R,24R)-12-(2,6-dimethylphenyl)-24-(2-methylpropyl)-20-(trifluoromethyl)-15-oxa-8λ^6-thia-1,9,11,25-tetraazapentacyclo[14.7.1.13,7.110,14.017,22]hexacosa-3,5,7(26),10,12,14(25),17,19,21-nonaene-2,8,8-trione] |  |  | +++ (key: +++ is >600%; ++ is 30-60%; + is <30%) | < 1 µM |
| Cc1cccc(C)c1-c1cc2nc(n1)NS(=O)(=O)c1cccc(c1)C(=O)N1CCN(C3CCC(F)(F)CC3)C[C@H](O2)[C@H]1CC(C)C [Compound 85, (16S,21R)-18-(4,4-Difluorocyclohexyl)-12-(2,6-dimethylphenyl)-21-(2-methylpropyl)-15-oxa-8λ^6-thia-1,9,11,18,22-pentaazatetracyclo[14.4.1.13,7.110,14]tricosa-3(23),4,6,10(22),11,13-hexaene-2,8,8-trione] |  |  | +++ (key: +++ is >600%; ++ is 30-60%; + is <30%) | < 1 µM |
